Tests used:
[1] = target: tau peptide A6897 (residues 299-369) (human, UniProt P10636-8, biotin (position not given)); assay: ELISA
[2] = target: T1, tau peptide 2833-1 (residues 299-318) (human); assay: crystal structure
T1 chain: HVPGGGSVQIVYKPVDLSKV

[3] = target: tau peptide W1805 (residues 52-71) (human, C-terminal amide); assay: crystal structure
[4] = target: tau peptide A6940 (residues 42-103) (human, UniProt P10636-8, biotin (position not given)); assay: ELISA

B1: CBTAU-27.1 (antibody, V domains shown)
VH: QVQLVESGPEMRKPGESLKISCKTSGYIFSDYWTAWVRQLPGKGLQWMGIIYSGDSDTRYHPSVQGHVTMSTDSSLTTAYLQWSSLKASDTGIYYCARLDARVDAGWQLDSWGQGTLVTVSS
VL: DIQLTQSPDSLAVSLGERATINCKSSQSVFSRDNNKNYLAWYQHKSGQPPKLLFFWASSRESGVSDRFSGSGSGTDFTLTIDNLQAEDVALYYCQHYFNTPHNFGQGTKLEIK
[1]
  binding result: binds

B2: CBTAU-27.1 Fab (Fab, V domains shown)
VH: B1 VH
VL: B1 VL
[2]
  binding result: binds

B3: CBTAU-28.1 Fab (Fab, V domains shown)
VH: QVQLQQSGAEVKKPGESLKISCEASGYSFTNYWIGWVRQMPGKGLEWMGIIYPGDSDTRYSPPFQGQVTITADRSITTAYLEWSSLKASDTAMYYCARVGRPSKGGWFDPWGQGTLVTVSS
VL: DIQMTQSPDSLAVSLGERATINCESSQTLLYSSNEKNYLAWYQQKPGQPPKLLISWASTPESGVPDRFSGSGSGTSFTLTISSLQAEDVAVYYCQQYYNSPYTFGQGTRLEIK
[3]
  binding result: binds

B4: CBTAU-28.1 (antibody, V domains shown)
VH: B3 VH
VL: B3 VL
[4]
  binding result: binds

Source: paper doi:10.1101/287003 (bioRxiv, 2018)
